Like-named read-outs stand apart in the source and are kept apart here.
Key:
Assay in all cases: biochemical
Type in all cases: binding
[1] = target: DRB1*0405 (Homo sapiens, UniProt P01903+P01911, A100R/A169T/D86S/F76Y/I96L/K127E/L162R/M171V/N62H/P40V/Q125Y/R42H/S133A/S149N/S66Y/V115G/V209L/W38E)
[2] = target: DRB1*1101 (Homo sapiens, UniProt P01903+P01911, A100R/A169T/A87E/I96F/K41T/L162R/M171V/P40S/Q125H/Q178H/Q39Y/Q99D/R42S/S66Y/T262R/V115G/W38E)
[3] = target: DRB1*0802 (Homo sapiens, UniProt P01903+P01911, A100R/A103L/A169T/F76Y/H45Y/I96F/K41T/L162R/M171V/P40S/Q125H/Q178H/Q39Y/Q99D/R218S/R42G/S66Y/V115G/W38E)
[4] = target: DRB1*1302 (Homo sapiens, UniProt P01903+P01911, A100E/A169T/K41T/L162R/M171V/P40S/Q125H/Q178H/Q39Y/Q99D/R42S/S66N/T262R/V115G/W38E/Y61H)
[5] = target: DRB1*0401 (Homo sapiens, UniProt P01903+P01911, A100K/A169T/F76Y/I96L/K127E/L162R/M171V/N62H/P40V/Q125Y/R42H/S133A/S149N/S66Y/V115G/V209L/W38E)
[6] = target: DRB1*0901 (Homo sapiens, UniProt P01903+P01911, A100R/A103E/D57H/D86V/F55Y/F60I/F76Y/I96F/K127E/L162R/M171V/P40D/Q125H/Q99R/R33Q/R42F/S133A/S66N/T210M/V115G/W38K/Y107V/Y59G/Y89S)
[7] = target: DRB1*0701 (Homo sapiens, UniProt P01903+P01911, A100R/A102G/A103Q/D57E/D86V/E43K/F76Y/K127E/L162R/M171V/P40G/Q125H/Q99D/R33Q/R42Y/R54Q/S133A/S66F/T210M/V115G/Y107V/Y59L/Y89S)
[8] = target: DRB1*0101 (Homo sapiens, UniProt P01903+P01911, A100R/D57E/F55L/F60I/F76Y/I96L/L162R/M171V/P40L/Q125E/R42F/V115G/Y59C)
[9] = target: DRB1*0301 (Homo sapiens, UniProt P01903+P01911, A100K/A102G/A103R/A169T/F55Y/I96L/K41T/L162R/M171V/P40S/Q125H/Q178H/Q39Y/R42S/S66N/T106N/T262R/W38E/Y61H)
[10] = target: DRB1*1501 (Homo sapiens, UniProt P01903+P01911)
[11] = target: DRB1*0404 (Homo sapiens, UniProt P01903+P01911, A100R/A169T/F76Y/I96L/K127E/L162R/M171V/N62H/P40V/Q125Y/R42H/S133A/S149N/S66Y/V209L/W38E)
[12] = read-out: Binding Affinity (nM) DRB1*0404
[13] = read-out: Binding Affinity (nM) DRB1*1101
[14] = competitive inhibition of radiolabeled standard peptide, '-' distinct from ND, read-out: Binding Affinity (nM) DRB1*1302
[15] = competitive inhibition of radiolabeled standard peptide, '-' distinct from ND, read-out: Binding Affinity (nM) DRB1*0901

| SMILES | IC50 [1] | IC50 [2] | IC50 [3] | IC50 [4] | IC50 [5] | IC50 [6] | IC50 [7] | IC50 [8] | IC50 [9] | IC50 [10] | IC50 [11, 12] | IC50 [2, 13] | IC50 [11] | IC50 [4, 14] | IC50 [6, 15] | IC50 ([9]; read-out: Binding Affinity (nM) DRB1*0301) | IC50 ([1]; read-out: Binding Affinity (nM) DRB1*0405) | IC50 ([6]; read-out: Binding Affinity (nM) DRB1*0901) |
| --- | --- | --- | --- | --- | --- | --- | --- | --- | --- | --- | --- | --- | --- | --- | --- | --- | --- | --- |
| CC[C@H](C)[C@H](NC(=O)[C@@H](NC(=O)CN)[C@@H](C)O)C(=O)N[C@@H](CC(C)C)C(=O)N[C@H](C(=O)N[C@@H](CCCCN)C(=O)N[C@H](C(=O)N[C@@H](CCC(=O)O)C(=O)N[C@@H](Cc1ccc(O)cc1)C(=O)N[C@@H](CCCCN)C(=O)NCC(=O)N[C@@H](CCC(=O)O)C(=O)N[C@@H](CC(=O)O)C(=O)N[C@@H](C)C(=O)N1CCC[C@H]1C(=O)O)C(C)C)C(C)C [Envelope 316-330] | 8020 nM | 153 nM | 2460 nM | 10600 nM | 4510 nM | 10200 nM | 4770 nM | 2460 nM | 3720 nM | 361 nM | > 20000 nM |  |  |  |  |  |  |  |
| CC[C@H](C)[C@H](NC(=O)[C@@H](NC(=O)[C@H](Cc1ccccc1)NC(=O)[C@H](CO)NC(=O)[C@H](CO)NC(=O)[C@H](CC(N)=O)NC(=O)[C@H](CCC(N)=O)NC(=O)[C@@H](NC(=O)[C@H](CCC(=O)O)NC(=O)[C@H](C)NC(=O)[C@@H](NC(=O)[C@@H](NC(=O)[C@@H](NC(=O)[C@H](CCCCN)NC(=O)[C@H](C)N)[C@@H](C)CC)C(C)C)[C@@H](C)O)[C@@H](C)O)[C@@H](C)CC)C(=O)O [NS1 121-135] | 1100 nM |  | 45 nM | 1100 nM | 11 nM | 2180 nM | 2560 nM | 355 nM | 1010 nM | 2920 nM |  | > 20000 nM | 1030 nM |  |  |  |  |  |
| CC[C@H](C)[C@H](NC(=O)[C@@H](N)CCSC)C(=O)N[C@H](C(=O)N1CCC[C@H]1C(=O)N[C@@H](CCCCN)C(=O)N[C@@H](CO)C(=O)N[C@@H](CC(C)C)C(=O)N[C@@H](C)C(=O)NCC(=O)N1CCC[C@H]1C(=O)N[C@H](C(=O)N[C@@H](CO)C(=O)N[C@@H](CCC(N)=O)C(=O)N[C@@H](Cc1c[nH]cn1)C(=O)N[C@@H](CC(N)=O)C(=O)O)[C@@H](C)CC)[C@@H](C)CC [NS1 241-255] | 9390 nM | 6920 nM | 7050 nM |  | 9210 nM |  | 7900 nM | 51 nM |  | 1070 nM | > 20000 nM |  |  | 5630 nM | 1310 nM | > 20000 nM |  |  |
| CC[C@H](C)[C@H](NC(=O)[C@H](CC(C)C)NC(=O)[C@H](CCCCN)NC(=O)CNC(=O)[C@H](CO)NC(=O)[C@@H](NC(=O)[C@@H](NC(=O)[C@@H](NC(=O)[C@@H](NC(=O)[C@H](CCCNC(=N)N)NC(=O)[C@H](CC(C)C)NC(=O)[C@@H](N)CO)[C@@H](C)O)[C@@H](C)O)[C@@H](C)O)C(C)C)C(=O)N[C@@H](Cc1c[nH]cn1)C(=O)N[C@@H](CCC(=O)O)C(=O)N[C@@H](Cc1c[nH]c2ccccc12)C(=O)O [NS1 297-311] | 15200 nM |  | 561 nM |  | 484 nM |  | 262 nM | 228 nM | 2420 nM | 736 nM |  | > 20000 nM | 15500 nM | 2410 nM | 2310 nM |  |  |  |
| CC[C@H](C)[C@H](NC(=O)[C@H](CC(=O)O)NC(=O)[C@H](CCSC)NC(=O)[C@@H](N)C(C)C)C(=O)N[C@H](C(=O)N[C@@H](CO)C(=O)N[C@@H](CCCNC(=N)N)C(=O)N[C@@H](CCCCN)C(=O)N[C@@H](CC(=O)O)C(=O)N[C@@H](CCC(N)=O)C(=O)N[C@@H](CCCNC(=N)N)C(=O)NCC(=O)N[C@@H](CO)C(=O)NCC(=O)N[C@@H](CCC(N)=O)C(=O)N[C@H](C(=O)NCC(=O)O)C(C)C)[C@@H](C)CC [NS5 588-604] |  | 124 nM | 5750 nM | 4530 nM | 5720 nM |  | 17100 nM | 13400 nM |  | 2380 nM | > 20000 nM |  |  |  |  |  | > 20000 nM | > 20000 nM |

Source: article PMC3794980, “Identification of Conserved and HLA Promiscuous DENV3 T-Cell Epitopes” (PLoS Neglected Tropical Diseases, 2013)
